Test results published in US11440923B2, “Substituted macrocyclic indole derivatives” (Bayer Aktiengesellschaft, priority 2017, dated 2022).

Legend:
MCL-1 = MCL-1 (Homo sapiens (Human), UniProt Q07820, K194A/K197A/R201A); assay: Protein-compound interaction assay (SPR assay, Assay 9); type: binding
MV-4-11 cells = assay: Antiproliferation assay MV-4-11 (Assay 7); settings: read-out: Antiproli MV-4-11 IC50 median; 72 h, CellTiter-Glo
HMC-1-8 cells = assay: Antiproliferation assay HMC-1-8 (Assay 7); type: cell-based; settings: read-out: Antiproli HMC-1-8 IC50 median; 72 h, CellTiter-Glo
A2780 cells = assay: Antiproliferation assay A2780 (Assay 7); settings: read-out: Antiproli A2780 IC50 median; 72 h, CellTiter-Glo
AMO-1 cells = assay: Antiproliferation assay AMO-1 (Assay 7); type: cell-based; settings: read-out: Antiproli AMO-1 IC50 median; 72 h, CellTiter-Glo

Cc1c2c(nn1C)C(CCN1CCOCC1)OCCCCn1c(C(=O)O)c(CCCOc3cccc4ccccc34)c3ccc(F)c-2c31 (stereo not shown)
koff (geometric mean) (MCL-1; 25° C.): 2.5 E−2 1/s | kon (geometric mean) (MCL-1; 25° C.): 2.9 E7 1/M 1/s | Kd (MCL-1; read-out: KD (geometric mean), 25° C.): 0.84 nM | IC50 (MV-4-11 cells): 244 nM | IC50 (HMC-1-8 cells): 1430 nM | IC50 (A2780 cells): 2840 nM | IC50 (AMO-1 cells): 221 nM
